Source: ChEMBL document CHEMBL1134465, “Synthesis and evaluation of pteroic acid-conjugated nitroheterocyclic phosphoramidates as folate receptor-targeted alkylating agents” (J Med Chem, 2001)

Columns and labels:
[1] = tested on: UMUC3; assay: In vitro growth inhibition of human tumor cell line, UMUC3; type: functional, cell-based
Method in brief: (§1)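 Cells were seeded and grown 24 h at 37 °C in McCoy's 5A medium with 10% heat-inactivated FBS, penicillin 100 U/mL and streptomycin 100 μg/mL. Drug from DMSO stock was added in the same medium, with final DMSO <1%. Five serial 10-fold dilutions were tested, top final concentration 100 μg/mL.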

[2] = tested on: MIA PaCa-2; assay: In vitro growth inhibition of human tumor cell line, PACA2; type: functional, cell-based; method in brief: as §1
[3] = tested on: A498; assay: In vitro growth inhibition of human kidney carcinoma cell line, A498 with low levels of folate receptors
[4] = In vitro growth inhibition of human breast adrenocarcinoma cell line, MDA-231 with over expressed folate receptors
[5] = tested on: A549; assay: In vitro growth inhibition of human lung carcinoma cell line, A549 with low levels of folate receptors
[6] = tested on: HT-29; assay: In vitro growth inhibition of human tumor cell line, HT-29; type: functional, cell-based; method in brief: as §1
[7] = tested on: PC-3; assay: In vitro growth inhibition of human tumor cell line, PC3; type: functional, cell-based; method in brief: as §1
[8] = In vitro growth inhibition of human ovarian carcinoma cell line, IGROV with over expressed folate receptors in folate deficient medium
[9] = In vitro growth inhibition of human breast adrenocarcinoma cell line, MDA-231 with over-expressed folate receptors in folate deficient medium
[10] = tested on: A549; assay: In vitro growth inhibition of human lung carcinoma cell line, A549 with low levels of folate receptors in folate deficient medium
[11] = In vitro growth inhibition of human breast adrenocarcinoma cell line, MDA-231 with over-expressed folate receptors
[12] = In vitro growth inhibition of human ovarian carcinoma cell line, IGROV with over expressed folate receptors
[13] = tested on: A498; assay: In vitro growth inhibition of human kidney carcinoma cell line, A498 with low levels of folate receptors in folate deficient medium

| Structure (SMILES) | IC50 [1] | IC50 [2] | IC50 [3] | IC50 [4] | IC50 [5] | IC50 [6] | IC50 [7] | IC50 [8] | IC50 [9] | IC50 [10] | IC50 [11] | IC50 [12] | IC50 [13] |
| --- | --- | --- | --- | --- | --- | --- | --- | --- | --- | --- | --- | --- | --- |
| NP(=O)(OCc1ccc([N+](=O)[O-])o1)N(CCCl)CCCl (centres undefined) | 55 nM | 130 nM | 1100 nM | 520 nM | 330 nM | 380 nM | 1000 nM |  |  |  |  |  |  |
| NP(=O)(OCc1ccc([N+](=O)[O-])o1)N(CCBr)CCBr (centres undefined) | 13 nM | 160 nM | 45 nM |  | 270 nM | 60 nM | 250 nM | 49 nM | 22 nM | 260 nM | 32 nM | 41 nM | 29 nM |
